# Results taken from PMC7461649 (Journal of medicinal chemistry, 2020).
# The chains behind the UniProt entries cited, without tags or fusion partners. Where a name states a change or a piece, a line headed by the entry shows the natural chain unless it says otherwise.
# UniProt A0A125SA05: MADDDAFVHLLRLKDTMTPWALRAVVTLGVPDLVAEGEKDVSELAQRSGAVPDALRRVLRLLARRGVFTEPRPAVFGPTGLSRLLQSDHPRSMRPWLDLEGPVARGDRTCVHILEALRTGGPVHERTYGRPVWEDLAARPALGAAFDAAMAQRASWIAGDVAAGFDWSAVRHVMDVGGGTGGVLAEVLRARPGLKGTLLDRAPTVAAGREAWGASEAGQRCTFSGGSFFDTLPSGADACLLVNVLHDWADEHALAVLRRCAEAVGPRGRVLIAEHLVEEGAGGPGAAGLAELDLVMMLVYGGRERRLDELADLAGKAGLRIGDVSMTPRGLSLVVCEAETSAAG
# Target: TnmH (Streptomyces sp. CB03234, UniProt A0A125SA05)
# Test: X-ray crystal structure, […] Å
# Format: binding
# Details: SAM soaked into TnmH crystals; homodimer
smiles,measurement,value
C[S+](CC[C@H](N)C(=O)O)C[C@H]1O[C@@H](n2cnc3c(N)ncnc32)[C@H](O)[C@@H]1O (stereo partly shown) [SAM],"X-ray crystal structure, 2.73 Å",holo-TnmH X-ray crystal structure in complex with SAM (PDB entry 6CLX)
